{"source": "paper PMC6032384", "about": "(International Journal of Molecular Sciences, 2018)", "tested_on": "HL-60 cells", "note": "“And” between values parts separate entries of the source, which are not always exact repeats. Equal entries are not always repeated.", "data": [{"smiles": "O=C1[O][Pt]2([NH][C@@H]3CCCC[C@H]3[NH]2)[O]C1=O", "note": "[OXA, Oxaliplatin, reference compound]", "values": [{"measurement": "Reduction of the number of viable cells", "result": "37.0% and 70.0%"}]}]}
